## Yeast mating assay 2: variants of the scFv Ab-91

Antigen: PDVDLGDISGINAS, a 14-residue peptide of the SARS-CoV-2 spike HR2 region.

The variants keep the light chain, the linker and the frameworks of Ab-91 (scFv order VL, three GGGGS repeats, VH).
VL: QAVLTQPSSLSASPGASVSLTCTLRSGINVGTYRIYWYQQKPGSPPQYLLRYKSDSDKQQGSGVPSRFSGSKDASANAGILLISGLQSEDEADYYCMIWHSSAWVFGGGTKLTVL
VH: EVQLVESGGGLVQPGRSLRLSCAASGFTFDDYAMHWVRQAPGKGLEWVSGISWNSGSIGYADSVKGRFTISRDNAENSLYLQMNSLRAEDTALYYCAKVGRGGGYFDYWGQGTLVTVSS

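The parent was found by panning a naive human phage display library on the peptide. The library (AAYL51) carries one to three amino acid substitutions per variant, with no insertions or deletions. AlphaSeq pools MATa yeast showing the antibodies with MATalpha yeast showing the peptide. After mating in shaken culture at 30 °C for 16 h, diploids were selected and their barcode pairs sequenced. The ratio of observed to expected reads was calibrated, replicate by replicate, on BCL2-family standards whose Kd was known from biolayer interferometry. Each pool was mated in three replicate cultures.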

Positions count from residue 1 of the parent VH; F27M puts M in place of F.
Scale: log10 of Kd in nM, estimated from mating counts; low values are strong binders.
Replicates are averaged; those with no signal do not enter the mean.
"not detected" means that the variant was in the library but no mating with the target was seen in any replicate; the authors take this as a sign of poor binding, and no number exists.

changes,mean log10 Kd (nM),replicates with signal,control signals
F27M/I58D/G59P,5.10,1/3,2/9
A33D/M34T/G102F,4.57,3/3,5/9
F29M/N54C,5.58,1/3,0/9
D62V/V64A/G103E,5.45,2/3,4/9
F27C/N54K/V64Q,3.85,1/3,2/9
F29V/H35W/W53K,4.19,1/3,5/9
M34C/I58Y/G103I,4.54,2/3,0/9
F29G/D31C/M34L,4.84,2/3,6/9
N54H/G56W/I58W,5.52,3/3,3/9
S55Y/Y60N/G100C,4.42,3/3,3/9
F27R/T28Q/F106I,not detected,0/3,0/9
F27A/I58K/K65F,5.40,2/3,1/9
W53A/D62T/G104W,0.79,3/3,1/9
Y60D/D62W,not detected,0/3,0/9
D31L/V64G/G103C,3.31,3/3,6/9
G26F/H35N/S57F,not detected,0/3,1/9
G26K/F27V/D30V,not detected,0/3,0/9
A33E/D62I/Y105L,4.92,2/3,3/9
G26D/F29W/I51F,not detected,0/3,0/9
F29M/H35I/S63H,not detected,0/3,1/9
G26E/A61M/F106S,not detected,0/3,1/9
D31Q/A33T/S52P,not detected,0/3,0/9
D30I/V99Q/F106E,not detected,0/3,0/9
F27K/W53D/A61W,4.66,2/3,4/9
D30Y/W53N/G103N,4.87,2/3,3/9
A33G/G100I/Y105F,not detected,0/3,1/9
N54T/K65G/F106W,not detected,0/3,2/9
S52P/G102D/Y105F,5.60,1/3,0/9
A33Y/K65D/G103S,3.70,1/3,4/9
I51S/I58G/G102D,4.84,3/3,7/9
Y32A/M34E/Y60H,not detected,0/3,1/9

Further variants, results first:

mean log10 Kd (nM),replicates with signal,control signals,changes
2.34,2/3,0/9,S57E/G103T
3.77,2/3,4/9,G59S/D62P
5.11,2/3,6/9,G26N/S63K/F106T
4.42,2/3,5/9,A33D/V99N/G100R
4.03,2/3,4/9,V99R/G103Y/D107L
2.06,3/3,6/9,M34F/V99R/G104H
5.07,2/3,2/9,T28A/A61C/Y108H
5.05,1/3,0/9,Y32D/G50N/I58G
not detected,0/3,0/9,S55D/V99T
4.19,1/3,3/9,I51W/W53G/S57K
3.43,2/3,4/9,Y60I/R101Y
not detected,0/3,0/9,S55D/I58N
not detected,0/3,0/9,F27T/H35V/S63P
3.83,1/3,0/9,G26V/F27Q/S63D
4.83,1/3,1/9,A33G/S52Y/V64A
1.03,3/3,1/9,D31Q/G56I/Y108D
5.09,2/3,6/9,I58A/G103M/Y105P
4.81,3/3,2/9,I58Y/S63W/K65C
5.07,2/3,2/9,G26I/G102Y/G104Y
not detected,0/3,1/9,I51W/S52Q/G103V
4.75,1/3,0/9,G50E/G104S
2.87,3/3,2/9,S57H/G103W/Y105A
5.39,3/3,6/9,S52W/G56T/Y60P
5.30,2/3,2/9,G100A/R101E/D107S
not detected,0/3,0/9,W53F/G103I/F106Y
3.70,3/3,2/9,D30G/S57P/I58E
4.87,2/3,5/9,I51T/G59V/V99I
not detected,0/3,1/9,G26S/I51L/W53T
5.50,2/3,7/9,F29V/G50I/S57I
not detected,0/3,0/9,H35E/I58E/Y105V
5.45,1/3,3/9,T28F/S63K/R101D

For reference, 9 entries of the list once more:

changes,mean log10 Kd (nM),replicates with signal,control signals
A33Y/K65D/G103S,3.70,1/3,4/9
F27R/T28Q/F106I,not detected,0/3,0/9
I58Y/S63W/K65C,4.81,3/3,2/9
G26S/I51L/W53T,not detected,0/3,1/9
F27T/H35V/S63P,not detected,0/3,0/9
S52W/G56T/Y60P,5.39,3/3,6/9
A33D/M34T/G102F,4.57,3/3,5/9
F27C/N54K/V64Q,3.85,1/3,2/9
F27M/I58D/G59P,5.10,1/3,2/9

Background: pairings of library AAYL51 with three empty control strains gave a value in 21% of cases (median 4.54, 5th percentile 3.26). Values in that range, when seen in few replicates, are hard to tell from nonspecific mating. For each scFv, signals with the empty controls are counted beside the result.

From the AlphaSeq antibody data of Engelhart et al. 2022 (doi:10.1038/s41597-022-01779-4), copy in the FLAb collection.